Source: patent US20130217864A1 (HANDOK PHARMACEUTICALS, published 2013)

Tests used:
hIL-1RI protein [1] = target: T1, hIL-1RI protein (human, UniProt P14778 18-332, limits assumed); experiment: SPR (Biacore), fusion protein amine-coupled to CM5 chip, hIL-1RI protein flowed over
T1 construct: Analyte in the SPR experiment; also called IL-1 receptor
T1 sequence (looked up): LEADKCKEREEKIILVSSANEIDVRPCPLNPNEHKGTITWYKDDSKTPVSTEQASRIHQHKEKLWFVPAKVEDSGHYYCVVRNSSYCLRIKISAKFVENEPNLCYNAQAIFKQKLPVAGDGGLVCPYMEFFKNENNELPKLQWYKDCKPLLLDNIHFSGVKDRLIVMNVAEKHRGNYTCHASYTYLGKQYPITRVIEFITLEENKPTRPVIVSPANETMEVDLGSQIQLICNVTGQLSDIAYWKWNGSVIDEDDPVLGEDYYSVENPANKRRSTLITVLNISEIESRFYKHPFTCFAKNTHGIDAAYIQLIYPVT
Protocol: (§1) To compare the binding affinity of the IL1Ra-hyFc fusion protein and hIL-1RA fused with Fc from IgG1 to hIL-1 RI, surface plasmon resonance (SPR) value was measured using Biacore (GE Healthcare).
(§2) CM5 chip set up to Biacore and then PBS (Phosphate buffered saline, PBS) was flowed into the CM5 chip. After the confirming that the baseline of the graph remained constant, 1-ethyl-3-dimethylaminopropyl carbodiimide (EDC)/N-hydroxy succinimide (NHS) was add to the chip to activate the amine group. Next, the IL1Ra-hyFc fusion protein or hIL-1RA fused with Fc from IgG1 was introduced to the chip to fix the proteins via covalent linkage with the activated amine group followed by additional fixation using ethanol amine. Then hIL-1RI protein was introduced into the chip to measure the resonance unit (RU), which represent the binding affinity.

hIL-1RI protein [2] = target: T1, hIL-1RI protein; experiment: SPR (Biacore), CM5 chip, fusion protein immobilised by amine coupling, receptor injected as analyte (labelled IL1R1-Fc on the sheet), 1.25-40 nM
Protocol: as §1, §2

B1: IL-1 receptor antagonist-hybrid Fc fusion protein (Fc fusion)
chain: RPSGRKSSKMQAFRIWDVNQKTFYLRNNQLVAGYLQGPNVNLEEKIDVVPIEPHALFLGIHGGKMCLSCVKSGDETRLQLEAVNITDLSENRKQDKRFAFIRSDSGPTTSFESAACPGWFLCTAMEADQPVSLTNMPDEGVMVTKFYFQEDEGGSRNTGRGGEEKKKEKEKEEQEERETKTPECPSHTQPLGVFLFPPKPKDTLMISRTPEVTCVVVDVSQEDPEVQFNWYVDGVEVHNAKTKPREEQFNSTYRVVSVLTVLHQDWLNGKEYKCKVSNKGLPSSIEKTISKAKGQPREPQVYTLPPSQEEMTKNQVSLTCLVKGFYPSDIAVEWESNGQPENNYKTTPPVLDSDGSFFLYSRLTVDKSRWQEGNVFSCSVMHEALHNHYTQKSLSLSLGK
notes: also called IL1Ra-hyFc fusion protein; IL-1Ra-hyFc
Kd (hIL-1RI protein [1]): 0.186 nM | koff (hIL-1RI protein [2]): 0.000113 s⁻¹ | kon (hIL-1RI protein [2]): 611000 M⁻¹ s⁻¹

B2: hIL-1RA fused with Fc from IgG1 (Fc fusion, human, UniProt P18510 26-177, looked up)
chain: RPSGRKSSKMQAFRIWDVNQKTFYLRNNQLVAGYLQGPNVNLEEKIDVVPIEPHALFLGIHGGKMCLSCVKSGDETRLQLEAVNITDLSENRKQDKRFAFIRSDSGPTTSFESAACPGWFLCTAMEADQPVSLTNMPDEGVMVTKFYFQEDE
notes: Control fusion protein; also called IL-1 receptor antagonist fused to IgG1 Fc; hIL1RA fused to IgG1 Fc; not shown: Fc from IgG1
Kd (hIL-1RI protein [1]): 1.02 nM
